Values of other authors as cited in paper PMC8951016, “Computational Design and Biological Evaluation of Analogs of Lupin Peptide P5 Endowed with Dual PCSK9/HMG-CoAR Inhibiting Activity” (Pharmaceutics, 2022).

Biological target: T1, HMG-CoAR (catalytic domain) (Homo sapiens, UniProt P04035)
T1 construct: finally the HMG-CoAR (cata- lytic domain) (2 µL); purchased Sigma-Aldrich
T1 sequence (P04035 426-888 limits assumed): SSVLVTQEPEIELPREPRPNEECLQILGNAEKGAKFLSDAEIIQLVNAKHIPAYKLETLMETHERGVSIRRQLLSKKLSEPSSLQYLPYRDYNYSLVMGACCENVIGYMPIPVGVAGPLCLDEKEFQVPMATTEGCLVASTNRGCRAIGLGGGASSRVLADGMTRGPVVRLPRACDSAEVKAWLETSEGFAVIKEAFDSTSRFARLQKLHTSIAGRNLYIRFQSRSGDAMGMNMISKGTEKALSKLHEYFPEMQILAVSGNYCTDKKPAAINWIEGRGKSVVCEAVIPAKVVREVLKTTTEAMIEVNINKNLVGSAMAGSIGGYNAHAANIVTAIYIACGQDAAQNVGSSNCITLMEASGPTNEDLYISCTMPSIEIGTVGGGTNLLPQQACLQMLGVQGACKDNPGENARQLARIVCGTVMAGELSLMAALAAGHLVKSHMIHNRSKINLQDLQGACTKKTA
Settings: read-out: IC50, HMG-CoAR activity (statins); cited from earlier work

Structure (SMILES)	IC50
CC(C)c1c(C(=O)Nc2ccccc2)c(-c2ccccc2)c(-c2ccc(F)cc2)n1CC[C@@H](O)C[C@@H](O)CC(=O)O [atorvastatin]	8.2 nM
CC[C@H](C)C(=O)O[C@H]1C[C@H](O)C=C2C=C[C@H](C)[C@H](CC[C@@H](O)C[C@@H](O)CC(=O)O)[C@H]21 [pravastatin]	44.1 nM
